{
  "source": "patent US4968696A",
  "about": "“N,N'-bis-L-amino acid-L-cystine-peptide containing amino acid preparations for oral parenteral nutrition” (Pfrimmer + Co. Pharmazeutische Werke Erlangen GmbH + co. KG, priority 1986, dated 1990)",
  "origin": "cited, not measured here",
  "conditions": "cited from earlier work",
  "data": [
    {"substance": "N^2 -L-cystinyl-N^6 -L-cystinyl-L-lysine", "values": [
      {"measurement": "solubility in water (prior art statement)", "value": "readily soluble in water"}
    ]}
  ]
}
